This series is described as follows: in vivo. The note with it: mouse, ip. As to the method:
Compounds prepared according to the examples were evaluated for intrinsic activity and blocking effect on heart rate and: peripheral vasodilator response to isoprenaline in the cat. The acute LD50 in mice was evaluated. Alprenolol was used as a reference substance.

In the case of `C=CCc1ccccc1OCC(O)CNC(C)C` (stereo not shown) [alprenolol, reference compound], the LD50 worked out at 100 mg/kg.

In general, LD50 refers to the dose expected to kill half of the subjects tested. Lower therefore signals greater toxicity.

The record behind these values is US3998790A, “Phenoxy-hydroxypropylamines, their preparation, and method and pharmaceutical preparations for treating cardiovascular diseases” (priority 1974, dated 1976).
